Earlier results, collected in paper PMC5327911 (Clinical Pharmacology : Advances and Applications, 2017).

Conditions: atenolol; cited from earlier work

## CC(C)NCC(O)COc1ccc(CC(N)=O)cc1 (stereo not shown) [Atenolol, atenolol]
  fraction of the oral dose excreted unchanged in the feces: Half
